A short description of this series: Thioctamer zeta potential and particle size evaluation (Zetasizer Nano ZSP). It counts as physicochemical. On the procedure:
Thioctamer was prepared by conjugation of GA and TA in a 1:1 molar ratio. TA was solvated in deionized water (with added of triethanolamine in a 1:1 molar ratio with the amount of TA). GA was dissolved separately in deionized water. The two aqueous solutions were mixed and then vortexed for 60 sec. The prepared thioctamer was assessed for zeta potential and particle size utilizing a Zetasizer Nano ZSP (Malvern Instruments Ltd., Malvern, UK).

The text below walks through data of patent US11497765B1, “Thioctamer expedites wound healing” (King Abdulaziz University, priority 2022, dated 2022).

For “L-alanine compound with L-tyrosine compound with L-lysine compound with L-glutamic acid acetic acid [GA]”, the zeta potential came to 23±4.2 mV.
